Values quoted from earlier work, collected in patent US20050043786A1, “Methods and apparatus for treatment of aneurysmal tissue” (Medtronic AVE, Inc., priority 2003, published 2005).

Details: in vivo

NCCCC[C@H](N[C@@H](CCc1ccccc1)C(=O)O)C(=O)N1CCC[C@H]1C(=O)O [lisinopril]
route of clearance / elimination: cleared as the intact compound in the kidney
